Assay results from patent US8329716B2, “Hetaryloxy-substituted phenylamino pyrimidines as Rho kinase inhibitors” (Bayer Intellectual Property GmbH, priority 2004, dated 2012).

System: isolated saphenous artery of rabbits
Assay: Vessel-relaxing action in vitro, phenylephrine-induced contractions of isolated saphenous artery rings
Conditions: Oryctolagus cuniculus; concentration reducing phenylephrine-induced contraction of rabbit saphenous artery rings by 50% of control
Description: The inhibition of the enzyme is investigated in an in vitro assay with recombinant Rho kinase II. The vessel-relaxing action is determined using phenylephrine-induced contractions of isolated rings of the saphenous artery of rabbits.
Vessel-Relaxing Action In Vitro
Individual 3-mm-wide rings of the isolated saphenous artery of rabbits are introduced into 5 ml organ baths with Krebs-Henseleit solution (37° C., gassed with carbogen). The vessel tone is monitored isometrically and registered. Contractions are induced by addition of […] of phenylephrine/ml, which is washed out again after 4 min. After a number of control cycles, the rings are preincubated with the substance to be examined, with the dosage being increased for each further cycle, and the subsequent contraction is compared to the intensity of the last control contraction.

IC50: 100 nM
SMILES: Cc1c[nH]c2nccc(Oc3ccc(Nc4cc(Cl)nc(N)n4)cc3F)c12 [Example 5, 6-Chloro-N^4-{3-fluoro-4-[(3-methyl-1H-pyrrolo[2,3-b]pyridin-4-yl)oxy]phenyl}pyrimidine-2,4-diamine]
